Experimental data taken from patent publication US6319952A, “Compositions and methods for reversibly increasing permeability of biomembranes” (D-Pharm Ltd., priority 1997, dated 2001).

Legend:
[1] = system: blood-brain barrier (BBB); test: Effect of branched chain fatty acids on BBB permeability by qualitative Evan's Blue (EB) evaluation in rats; assay type: in vivo, rat (male Sprague-Dawley); settings: 625 μM, 45 min, intracarotid infusion; also: key: -: Minus signs represents no staining; +: four degrees of Evan's Blue extravasation according to Rapoport et al; ++: four degrees of Evan's Blue extravasation according to Rapoport et al; +++: three plus signs represent maximal staining
Protocol: Evaluation of Effect of Branched Fatty Acids on Blood-brain Barrier Permeability
The experiments were carried out on male Sprague-Dawley rats weighing 250-320 gr. They were anesthetized with Rampun-Imalgen. The right common carotid artery was exposed.
The test compounds were dissolved in 0.1M phosphate buffered physiological saline (pH=7.4) at the following test concentrations: 1.6; 8; 20; 40; 200 and 1000 μg/ml. […] The resulting pH of the test solutions was in the range of 8.0 to 8.5, and contols for the pH effect were performed up to pH 9.
The test compound was infused into the right common carotid artery at a rate of 6 ml/min. for 30 s. The control rats were infused with buffer. Evan's Blue (EB) solution at a concentration of […] (2 g Evan's Blue, 0.9 g NaCl in 100 ml water) was injected intravenously 50 minutes prior to the termination of the experiment.
In the case of 45 min experiment, five minutes prior to the infusion of the tested material, 4 ml/kg body wt dose of Evans Blue solution was injected intravenously.
At the end of the experimental time period the animals were perfused with 100 ml of saline solution through the heart and decapitated. […]

[2] = system: ipsilateral hemisphere of the brain; test: Methotrexate content of brains of rats pretreated with M3,14 (DP-BFA); assay type: in vivo, rat

Row | SMILES | Visual EB [1] | Methotrexate content, ipsilateral, control ([2]; 0 min) | Methotrexate content, ipsilateral, control ([2]; 30 min) | Methotrexate content, ipsilateral, control ([2]; 60 min) | Methotrexate content, ipsilateral, control ([2]; 90 min) | Methotrexate content, ipsilateral, control ([2]; 120 min) | Methotrexate content, ipsilateral, control ([2]; 150 min) | Methotrexate content, ipsilateral, control ([2]; 180 min) | Methotrexate content, ipsilateral, control ([2]; 210 min)
1 | CCCC(CCC)C(=O)O [M3/3, reference compound] | - |  |  |  |  |  |  |  | 
2 | CN(Cc1cnc2nc(N)nc(N)c2n1)c1ccc(C(=O)N[C@@H](CCC(=O)O)C(=O)O)cc1 [Methotrexate, methotrexate] |  | 0 | 0.027 | 0.049 | 0.095 | 0.095 | 0.109 | 0.19 | 0.218
